Our source for the IC50 values is patent US20090099157A1, “TETRAHYDRO-PYRAZOLO-PYRIDINE THIOETHER MODULATORS OF CATHEPSIN S” (priority 2007, published 2009).

The chains behind the UniProt entries cited, without tags or fusion partners. Residues count along the entry.
UniProt P25774, 115-331: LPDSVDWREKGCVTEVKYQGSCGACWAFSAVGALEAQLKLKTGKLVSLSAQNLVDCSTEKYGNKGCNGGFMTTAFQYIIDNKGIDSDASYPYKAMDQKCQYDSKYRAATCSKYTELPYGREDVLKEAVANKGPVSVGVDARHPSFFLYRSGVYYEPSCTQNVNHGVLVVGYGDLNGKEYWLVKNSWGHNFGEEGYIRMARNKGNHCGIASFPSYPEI

The test concerns the target Recombinant human cathepsin S (CatS) (Homo sapiens, UniProt P25774). Nature of the test: biochemical.

pIC50: −log10 of the molar value.

The pIC50 is the IC50 on a negative log10 scale, so that one unit is a factor of ten. In the case of `NC(=O)N1CCc2c(c(-c3ccc(C(F)(F)F)c(SCCN4CCC(F)CC4)c3)nn2C[C@@H](O)CN2CCCCC2)C1` [Example 322, 3-[3-{[2-(4-Fluoropiperidin-1-yl)ethyl]sulfanyl}-4-(trifluoromethyl)phenyl]-1-[(2S)-2-hydroxy-3-piperidin-1-ylpropyl]-1,4,6,7-tetrahydro-5H-pyrazolo[4,3-c]pyridine-5-carboxamide], the pIC50 is 6.64.
Take `CC(C)(O)C(=O)N1CCc2c(c(-c3ccc(C(F)(F)F)c(SCCN4CCC(F)CC4)c3)nn2CC(O)CN2CCCCC2)C1` (stereo not shown) [Example 437, 1-{3-[3-{[2-(4-Fluoropiperidin-1-yl)ethyl]sulfanyl}-4-(trifluoromethyl)phenyl]-1-(2-hydroxy-3-piperidin-1-ylpropyl)-1,4,6,7-tetrahydro-5H-pyrazolo[4,3-c]pyridin-5-yl}-2-methyl-1-oxopropan-2-ol]: the pIC50 is 6.21.
As for `O=C(CSc1cc(-c2nn(CC(O)CN3CCC(F)CC3)c3c2CNCC3)ccc1C(F)(F)F)N1CCCC1` (stereo not shown) [Example 296, 1-(4-Fluoropiperidin-1-yl)-3-(3-{3-[(2-oxo-2-pyrrolidin-1-ylethyl)sulfanyl]-4-(trifluoromethyl)phenyl}-4,5,6,7-tetrahydro-1H-pyrazolo[4,3-c]pyridin-1-yl)propan-2-ol], the figure is 5.38; as for `OC1CCCN(CCSc2cc(-c3nn(CC(O)CN4CCC(O)(c5ccccn5)CC4)c4c3CNCC4)ccc2C(F)(F)F)C1` (stereo not shown) [Example 462, 1-(2-{[5-{1-[2-Hydroxy-3-(4-hydroxy-4-pyridin-2-ylpiperidin-1-yl)propyl]-4,5,6,7-tetrahydro-1H-pyrazolo[4,3-c]pyridin-3-yl}-2-(trifluoromethyl)phenyl]sulfanyl}ethyl)piperidin-3-ol], 5.56.
Regarding `CS(=O)(=O)N1CCc2c(c(-c3ccc(C(F)(F)F)c(SCC(=O)N4CCC(C(N)=O)CC4)c3)nn2CCCN2CCC(N3CCCC3=O)CC2)C1` [Example 91, 1-{2-[5-(5-Methanesulfonyl-1-{3-[4-(2-oxo-pyrrolidin-1-yl)-piperidin-1-yl]-propyl}-4,5,6,7-tetrahydro-1H-pyrazolo[4,3-c]pyridin-3-yl)-2-trifluoromethyl-phenylsulfanyl]-acetyl}-piperidine-4-carboxylic acid amide], the negative logarithm of the IC50 (pIC50) was 6.82.
Turning to `CS(=O)(=O)N1CCc2c(c(-c3ccc(C(F)(F)F)c(SCC(=O)N4CCOCC4)c3)nn2CCCN2CCOCC2)C1` [Example 254, 5-(Methylsulfonyl)-3-{3-[(2-morpholin-4-yl-2-oxoethyl)sulfanyl]-4-(trifluoromethyl)phenyl}-1-(3-morpholin-4-ylpropyl)-4,5,6,7-tetrahydro-1H-pyrazolo[4,3-c]pyridine], the pIC50 was 6.00.
On to `COc1ccccc1N1CCN(C[C@H](O)Cn2nc(-c3ccc(C(F)(F)F)c(SCCN4CCC(F)CC4)c3)c3c2CCNC3)CC1` [Example 567, (2S)-1-{3-[3-{[2-(4-Fluoropiperidin-1-yl)ethyl]sulfanyl}-4-(trifluoromethyl)phenyl]-4,5,6,7-tetrahydro-1H-pyrazolo[4,3-c]pyridin-1-yl}-3-{4-[2-(methyloxy)phenyl]piperazin-1-yl}propan-2-ol], for which the pIC50 is 6.39.
Turning to `CC(=O)N1CCN(CCSc2cc(-c3nn(CC(O)CN4CCC(N5CCCC5=O)CC4)c4c3CN(S(C)(=O)=O)CC4)ccc2C(F)(F)F)CC1` (stereo not shown) [Example 845, 1-[1-(3-{3-[3-{[2-(4-Acetylpiperazin-1-yl)ethyl]sulfanyl}-4-(trifluoromethyl)phenyl]-5-(methylsulfonyl)-4,5,6,7-tetrahydro-1H-pyrazolo[4,3-c]pyridin-1-yl}-2-hydroxypropyl)piperidin-4-yl]pyrrolidin-2-one], the pIC50 was 6.72.
On to `O=C(CSc1cc(-c2nn(CC(O)CN3CCN(c4ccc(F)cc4)CC3)c3c2CNCC3)ccc1C(F)(F)F)N1CCCC1` (stereo not shown) [Example 397, 1-[4-(4-Fluorophenyl)piperazin-1-yl]-3-(3-{3-[(2-oxo-2-pyrrolidin-1-ylethyl)sulfanyl]-4-(trifluoromethyl)phenyl}-4,5,6,7-tetrahydro-1H-pyrazolo[4,3-c]pyridin-1-yl)propan-2-ol], for which the pIC50 was 6.27.
`O=S(=O)(N1CCc2c(c(-c3ccc(C(F)(F)F)c(SCCN4CCC(F)CC4)c3)nn2C[C@@H](O)CN2CCCCC2)C1)C(F)(F)F` [Example 647, (2S)-1-{3-[3-{[2-(4-Fluoropiperidin-1-yl)ethyl]sulfanyl}-4-(trifluoromethyl)phenyl]-5-[(trifluoromethyl)sulfonyl]-4,5,6,7-tetrahydro-1H-pyrazolo[4,3-c]pyridin-1-yl}-3-piperidin-1-ylpropan-2-ol]: the pIC50 is 6.51.
Take `N#Cc1ccc(C2CCN(C[C@H](O)Cn3nc(-c4ccc(C(F)(F)F)c(SCCN5CCC(F)CC5)c4)c4c3CCNC4)CC2)cc1` [Example 533, 4-{1-[(2S)-3-{3-[3-{[2-(4-Fluoropiperidin-1-yl)ethyl]sulfanyl}-4-(trifluoromethyl)phenyl]-4,5,6,7-tetrahydro-1H-pyrazolo[4,3-c]pyridin-1-yl}-2-hydroxypropyl]piperidin-4-yl}benzonitrile]: the pIC50 is 7.02.
For the compound `N#Cc1ccccc1N1CCN(CC(O)Cn2nc(-c3ccc(C(F)(F)F)c(SCC(=O)N4CCOCC4)c3)c3c2CCNC3)CC1` (stereo not shown) [Example 526, 2-{4-[2-Hydroxy-3-(3-{3-[(2-morpholin-4-yl-2-oxoethyl)sulfanyl]-4-(trifluoromethyl)phenyl}-4,5,6,7-tetrahydro-1H-pyrazolo[4,3-c]pyridin-1-yl)propyl]piperazin-1-yl}benzonitrile], the pIC50 was 6.70.
For `OC(CN1CCN(c2ccccc2F)CC1)Cn1nc(-c2ccc(C(F)(F)F)c(SCCN3CCCCC3)c2)c2c1CCNC2` (stereo not shown) [Example 401, 1-[4-(2-Fluorophenyl)piperazin-1-yl]-3-(3-{3-[(2-piperidin-1-ylethyl)sulfanyl]-4-(trifluoromethyl)phenyl}-4,5,6,7-tetrahydro-1H-pyrazolo[4,3-c]pyridin-1-yl)propan-2-ol], the pIC50 was 6.30.
Turning to `CCOc1ccccc1N1CCN(C[C@H](O)Cn2nc(-c3ccc(C(F)(F)F)c(SCCN4CCC(F)CC4)c3)c3c2CCNC3)CC1` [Example 609, (2S)-1-{4-[2-(Ethyloxy)phenyl]piperazin-1-yl}-3-{3-[3-{[2-(4-fluoropiperidin-1-yl)ethyl]sulfanyl}-4-(trifluoromethyl)phenyl]-4,5,6,7-tetrahydro-1H-pyrazolo[4,3-c]pyridin-1-yl}propan-2-ol], the pIC50 is 6.47.
Take `CS(=O)(=O)NC1CCN(CC(O)Cn2nc(-c3ccc(C(F)(F)F)c(SCCN4CCC(F)(F)C4)c3)c3c2CCNC3)CC1` (stereo not shown) [Example 505, N-[1-(3-{3-[3-{[2-(3,3-Difluoropyrrolidin-1-yl)ethyl]sulfanyl}-4-(trifluoromethyl)phenyl]-4,5,6,7-tetrahydro-1H-pyrazolo[4,3-c]pyridin-1-yl}-2-hydroxypropyl)piperidin-4-yl]methanesulfonamide]: the pIC50 was 5.74.
`CC1CCN(CCSc2cc(-c3nn(C[C@@H](O)CN4CCOCC4)c4c3CN(S(C)(=O)=O)CC4)ccc2C(F)(F)F)CC1` [Example 391, (2S)-1-{3-[3-{[2-(4-Methylpiperidin-1-yl)ethyl]sulfanyl}-4-(trifluoromethyl)phenyl]-5-(methylsulfonyl)-4,5,6,7-tetrahydro-1H-pyrazolo[4,3-c]pyridin-1-yl}-3-morpholin-4-ylpropan-2-ol]: the pIC50 is 6.54.
